In test [1] the test system is STAT3 in HaCaT keratinocytes. The test is described as follows: pSTAT3 level in HaCaT keratinocytes (MSD chemiluminescent detection). The class given is cell-based, human. The method, then:
Prior to experiments, the DMEM medium was changed to KGM-SFM containing rEGF and bovine pituitary extract for 12 hours, and the cells then exposed to various stimuli for 30 minutes. Cell lysates were extracted in IP lysis buffer were diluted in MSD extraction buffer and 25 uL of the cell lysate containing 10 ug protein was used in the analysis via chemiluminescent detection (MSD Technology). To test for inhibition by WP1220 (WP), cells were pre-incubated with WP1220 prior to the addition of IFN α.

Test [2] concerns STAT3 in HH, HuT78 and MJ CTCL lines. The test is described as follows: STAT3 tyrosine 705 phosphorylation in CTCL lines. The class given is cell-based, human. As to conditions: serum starved 18 hours, stimuli 30 minutes (FIG. 7). The method, then:
To determine whether IFN alpha and beta were able to selectively phosphorylate STAT3 in other cell types. Studies were conducted in a range of other biologically relevant cell types. In these experiments, cells were grown in media supplemented with 10% FBS, and then serum starved for 18 hours and exposed to various stimuli for 30 minutes. […] (FIG. 10), and induced caspase-3 and PARP cleavage in these cells (Table E5)

Test [3] deals with STAT3 and Jak2 phosphorylation in SUP-T1 lymphoma cell line. The test is described as follows: Cytokine signalling in SUP-T1 lymphoma cell line. Type of test: cell-based. As to conditions: SUP-T1 lymphoma cell line (data not shown).

For “IL-2: cytokine, stimulus in HaCaT pSTAT3 test”, the “Relative level of pSAT3” value in test [1] (HaCaT cells, stimuli for 30 minutes) is recorded as “+ (+=less than 200 fold)”.

B1: IFN-β: Type I interferon used as stimulus of STAT3 phosphorylation (protein, UniProt P01574 22-187, looked up)
Interferon beta: MSYNLLGFLQRSSNFQCQKLLWQLNGRLEYCLKDRMNFDIPEEIKQLQQFQKEDAALTIYEMLQNIFAIFRQDSSSTGWNETIVENLLANVYHQINHLKTVLEEKLEKEDFTRGKLMSSLHLKRYYGRILHYLKAKEYSHCAWTIVRVEILRNFYFINRLTGYLRN
Consider B1, for which the “tyrosine phosphorylation of STAT3 (tyrosine 705)” value in test [2] is reported as “selectively stimulates tyrosine phosphorylation of STAT3”. Besides, the “STAT3 and Jak2 phosphorylation” value in test [3] is listed as “potently induce STAT3 but not Jak2 phosphorylation”. The “STAT3 activation in keratinocytes” value in test [1] was “potently induce STAT3 activation”.

(Values after patent US20130129675A1, “INTERFERON THERAPIES IN COMBINATION WITH BLOCKADE OF STAT3 ACTIVATION” (BOARD OF REGENTS, THE UNIVERSITY OF TEXAS SYSTEM, priority 2009, published 2013).)
